# Binding of CDR-mutated scFvs to a peptide of the spike HR2 region

The measurements come from Engelhart et al. 2022 (doi:10.1038/s41597-022-01779-4) through the FLAb antibody collection.

Antigen: PDVDLGDISGINAS, a 14-residue peptide of the SARS-CoV-2 spike HR2 region.

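The parent was found by panning a naive human phage display library on the peptide. Variants in AAYL49 differ from the parent at up to three CDR positions; double and triple changes were sampled at random. The assay is AlphaSeq: two haploid yeast populations carry antibody and antigen on their surface. Pairs that bind mate more often; barcode pairs of the diploids are counted by sequencing. Each replicate has its own calibration line, from reference interactions of the BCL2 family. The assay was run in three technical replicates.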

Each scFv is VH, a (GGGGS)3 linker, VL, as in the parent Ab-14, and differs from it in the CDRs of the heavy chain only.
VH: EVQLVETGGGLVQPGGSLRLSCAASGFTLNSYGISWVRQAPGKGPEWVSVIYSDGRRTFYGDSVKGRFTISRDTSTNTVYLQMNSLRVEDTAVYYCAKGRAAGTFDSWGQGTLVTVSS
VL: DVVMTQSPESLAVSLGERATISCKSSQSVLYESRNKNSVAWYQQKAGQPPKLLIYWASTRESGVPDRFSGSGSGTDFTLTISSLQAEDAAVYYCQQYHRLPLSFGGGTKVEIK

Positions count from residue 1 of the parent VH; L29A puts A in place of L.
Every variant below is changed at R100 of the VH (sequential numbering).
Each Kd is an estimate from the mating assay, the geometric mean of the replicates in which the pair was seen; lower is stronger.
"not detected" marks a missing value. The strain was present, yet no cells mated with the target were sequenced in any replicate, which points to weak or no binding.
Empty control strains, which show no peptide, gave a signal in 15% of pairings with library AAYL49; the median was 11 µM and 95% of these signals were weaker than 680 nM. No background was subtracted.

| changes | Kd (apparent) | seen in |
|---|---|---|
| L29A/D62Q/R100W | not detected | 0 of 3 |
| R100M | 13 nM | 3 of 3 |
| V64N/R100C/S107L | 270 µM | 3 of 3 |
| G26A/L29A/R100W | not detected | 0 of 3 |
| N30R/D54M/R100Y | not detected | 0 of 3 |
| G33D/F59W/R100M | 1.7 µM | 1 of 3 |
| V50S/F59G/R100W | 57 µM | 1 of 3 |
| R56T/R100G | not detected | 0 of 3 |
| I51G/R100Q/D106F | not detected | 0 of 3 |
| R56Q/R100T/G103N | 75 µM | 1 of 3 |
| N30E/R100M/A101D | 360 nM | 3 of 3 |
| T28E/V50S/R100N | 41 µM | 1 of 3 |
| G26Q/V64L/R100C | 3.2 µM | 1 of 3 |
| G26Y/R100Q/D106Y | 240 nM | 1 of 3 |
| L29H/T58R/R100W | not detected | 0 of 3 |
| R100Y/D106E | 260 nM | 3 of 3 |
| S35R/K65A/R100Q | 910 nM | 2 of 3 |
| G55A/R100F | not detected | 0 of 3 |
| Y32Q/V50E/R100S | not detected | 0 of 3 |
| Y32T/F59M/R100M | 44 µM | 2 of 3 |
| R100Y/T104F | not detected | 0 of 3 |
| L29F/S53R/R100Y | 170 µM | 2 of 3 |
| Y52F/S53Y/R100L | 2.9 µM | 2 of 3 |
| T28Y/R100D | 4.7 nM | 3 of 3 |
| T58C/R100D/A102Y | not detected | 0 of 3 |
| D54G/R100Q/A101R | 940 nM | 1 of 3 |
| F59M/R100T/A101Y | 43 nM | 3 of 3 |
| T28I/Y52H/R100I | 15 µM | 1 of 3 |
| G26E/R100Q/A101N | 14 nM | 3 of 3 |
| I34A/R100K/T104V | 190 µM | 1 of 3 |
| R100V/F105G | not detected | 0 of 3 |
| Y60T/R100T | 100 nM | 3 of 3 |
| G26P/N30G/R100P | 21 µM | 2 of 3 |
| R100E/G103E | 2.7 µM | 3 of 3 |
| K65H/R100I | 3.5 µM | 3 of 3 |
| Y32T/F59P/R100T | 13 µM | 1 of 3 |
| G26Q/G55M/R100N | not detected | 0 of 3 |
| N30C/K65R/R100Q | 29 nM | 3 of 3 |
| D62A/R100W | 11 µM | 1 of 3 |
| G33Q/Y60R/R100T | 43 µM | 3 of 3 |
| Y32F/R100H | 6.6 nM | 3 of 3 |
| S53N/R100N/T104K | not detected | 0 of 3 |
| D54P/R100T/G103V | not detected | 0 of 3 |
| G26T/I51K/R100M | 550 µM | 2 of 3 |
| F59D/S63Y/R100A | not detected | 0 of 3 |
| T58Y/R100P/T104N | 16 µM | 2 of 3 |

The 7 strongest on average among those seen in every replicate, once more:

| changes | Kd (apparent) | seen in |
|---|---|---|
| T28Y/R100D | 4.7 nM | 3 of 3 |
| Y32F/R100H | 6.6 nM | 3 of 3 |
| R100M | 13 nM | 3 of 3 |
| G26E/R100Q/A101N | 14 nM | 3 of 3 |
| N30C/K65R/R100Q | 29 nM | 3 of 3 |
| F59M/R100T/A101Y | 43 nM | 3 of 3 |
| Y60T/R100T | 100 nM | 3 of 3 |